The target in one assay is AURKB (Homo sapiens, UniProt Q96GD4). Description: Z'-LYTE kinase assay (SelectScreen), ATP at Km ([…]). The settings on record: read-out: IC50 (nM) AURKA AURKB.
The target of a further assay is AURKA (Homo sapiens, UniProt O14965). Described as above. The settings on record: read-out: IC50 (nM) AURKA AURKB.

Chains of the proteins cited; added tags and fusions are not shown.
UniProt Q96GD4, whole entry: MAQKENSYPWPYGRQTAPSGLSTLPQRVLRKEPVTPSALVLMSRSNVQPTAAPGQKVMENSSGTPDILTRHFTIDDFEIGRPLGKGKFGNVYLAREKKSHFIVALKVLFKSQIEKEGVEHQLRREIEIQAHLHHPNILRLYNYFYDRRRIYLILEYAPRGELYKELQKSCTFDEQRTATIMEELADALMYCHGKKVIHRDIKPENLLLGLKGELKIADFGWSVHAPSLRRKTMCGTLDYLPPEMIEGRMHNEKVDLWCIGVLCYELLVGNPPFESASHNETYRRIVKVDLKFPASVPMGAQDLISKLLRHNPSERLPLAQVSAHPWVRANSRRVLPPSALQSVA
UniProt O14965, whole entry: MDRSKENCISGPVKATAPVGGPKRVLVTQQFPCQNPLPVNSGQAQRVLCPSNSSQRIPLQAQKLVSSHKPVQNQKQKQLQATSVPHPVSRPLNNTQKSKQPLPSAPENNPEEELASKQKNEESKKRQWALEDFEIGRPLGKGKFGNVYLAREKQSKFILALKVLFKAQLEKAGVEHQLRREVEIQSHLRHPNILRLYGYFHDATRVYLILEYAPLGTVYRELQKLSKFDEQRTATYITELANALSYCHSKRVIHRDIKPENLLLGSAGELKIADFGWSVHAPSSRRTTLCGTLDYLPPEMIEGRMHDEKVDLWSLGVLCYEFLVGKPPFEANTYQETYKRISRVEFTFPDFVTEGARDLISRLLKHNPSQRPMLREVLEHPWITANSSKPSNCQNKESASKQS

Experimental findings from article PMC8163823 are described below.

The structures appear in SMILES notation.

Turning to `COc1cc(Nc2ncc3c(n2)-c2ccc(Cl)cc2C(c2c(F)cccc2OC)=NC3)ccc1C(=O)NCCOCCOCCOCCOCCNc1cccc2c1C(=O)N(C1CCC(=O)NC1=O)C2=O` (stereo not drawn), the IC50 was 77.2 nM on AURKB and 3.58 nM on AURKA.
For `COc1cc(Nc2ncc3c(n2)-c2ccc(Cl)cc2C(c2c(F)cccc2OC)=NC3)ccc1C(=O)NCCOCCOCCOCCOCC(=O)N[C@H](C(=O)N1C[C@H](O)C[C@H]1C(=O)NCc1ccc(-c2scnc2C)cc1)C(C)(C)C` the same measures were 95.4 nM and 6.17 nM.
As for `COc1cc(Nc2ncc3c(n2)-c2ccc(Cl)cc2C(c2c(F)cccc2OC)=NC3)ccc1C(=O)NCCOCCOCCOCCOCCOCCOCCNc1cccc2c1C(=O)N(C1CCC(=O)NC1=O)C2=O` (stereo not drawn), the IC50 was determined as 113 nM on AURKB and 4.78 nM on AURKA.

The term IC50 denotes the midpoint of a concentration-inhibition curve.
